# Measured values taken from patent US9447050B2, “Solid forms of curcumin” (THE TRANSLATIONAL GENOMICS RESEARCH INSTITUTE, priority 2011, dated 2016).
# Columns and labels:
# Type in all cases: physicochemical
# [1] = Stability tests (80° C.; 40° C./75% RH; ambient light) read by XRPD
# Description: XRPD analysis was carried out on a Siemens D5000, scanning the samples between 3 and 30 or 50 °2θ. For samples <100 mg, about 5 mg of sample was gently compressed onto a glass slide which fitted into the sample holder. For samples >100 mg; ca. 100 mg of sample was gently compressed into a plastic sample holder, so that the sample surface was smooth and just above the level of the sample holder. The sample was then loaded into the diffractometer running in reflection mode and analyzed, using the following experimental conditions—Raw Data Origin: Siemens-binary V2 (.RAW); Start Position [°2Th.]: 3.0000; End Position [°2Th.]: 30.000 or 50.000; Step Size [°2Th.]: 0.0200; Scan Step Time: [s] 0.8; Scan Type: Continuous; Offset [°2Th.]: 0.0000; Divergence Slit Type: Fixed; Divergence Slit Size [°]: 2.0000; Specimen Length [mm]: various; Receiving Slit Size [mm]: 0.2000; Measurement Temperature [° C.]: 20.00; Anode Material: Cu; K-Alpha1 [A]: 1.54060; K-Alpha2 [A]: 1.54443; K-Beta [A]: 1.39225; K-A2/K-A1 Ratio: 0.50000 (nominal); Generator Settings 40 mA, 40 kV; Diffractometer Type: D5000; Diffractometer Number: 0; Goniometer Radius [mm]: 217.50; Incident Beam Monochromator: No; Diffracted Beam Monochromator: Graphite; Spinning: No.
# Slurrying in water = details: for solid form on slurrying in water (XRPD): water slurry
# [2] = Dynamic vapor sorption (DVS); details: for XRPD post the DVS experiment (form change): after DVS; for water uptake (DVS): sorption 20-90% RH
# Description: Approximately, 10 mg of sample was placed into a wire-mesh vapor sorption balance pan and loaded into a DVS-1 dynamic vapor sorption balance by Surface Measurement Systems. The sample was subjected to a ramping profile from 20-90% relative humidity (RH) at 10% increments, maintaining the sample at each step until a stable weight was achieved (99.5% step completion). After completion of the sorption cycle, the sample was then dried using the same procedure, but all the way down to 0% RH and finally taken back to the starting point of 20% RH. The weight change during the sorption/desorption cycles was then plotted, allowing for the hygroscopic nature of the sample to be determined.
# [3] = Intrinsic dissolution experiments; details: for % Dissolved: 1% solutol, 37° C.
# Description: Approximately, 80-180 mg of each form was compressed into discs (or added as powders) by placing the material into a die (diameter: 13 mm) and compressing the die under 5 tons of pressure in a hydraulic press for about 2 minutes. The dissolution instrument, Sotax AT7 conformed to EP2 and USP2 in which paddles were used to stir the media. Each form was tested in 1% solutol solution (samples in 100% water had concentrations below the limit of detection of the system, therefore could not be quantified), in the stationary disc mode (i.e., discs were added at time=0 seconds and allowed to sink to the bottom of the media). Approximately 1 ml aliquots of media were extracted from the dissolution vessels at times 1, 5, 10, 15, 30, 60, 120, 240 minutes and 24 hours, and tested for API concentration by HPLC-UV. Dissolution curves were plotted and from the first 5 or 6 points on the curves the intrinsic dissolution rate curves were calculated. All tests were carried out at 37° C. and a paddle speed of 150 rpm.
# [4] = Thermodynamic solubility studies
Substance,40° C./75% RH stability test (XRPD) [1],80° C. stability test (XRPD) [1],ambient light stability test (XRPD) [1],solid form on slurrying in water (XRPD) (Slurrying in water),hygroscopicity (DVS) [2],XRPD post the DVS experiment (form change) [2],water uptake (DVS) [2],% Dissolved ([3]; timepoint 5 min) [%],% Dissolved ([3]; timepoint 10 min) [%],% Dissolved ([3]; timepoint 15 min) [%],% Dissolved ([3]; timepoint 30 min) [%],% Dissolved ([3]; timepoint 60 min) [%],% Dissolved ([3]; timepoint 120 min) [%],% Dissolved ([3]; timepoint 240 min) [%],% Dissolved ([3]; timepoint 1440 min) [%],water uptake (DVS) between 20-70% RH [2],further results
curcumin-2-aminobenzimidazole,"no signs of form transformation, disproportionation, degradation or loss in crystallinity","no signs of form transformation, disproportionation, degradation or loss in crystallinity","no signs of form transformation, disproportionation, degradation or loss in crystallinity","no signs of form transformation, disproportionation, degradation or loss in crystallinity",not hygroscopic,no degradation or transformation had occurred,0.8%,0.869,0.949,0.994,1.367,2.123,2.545,3.616,13.936,–,water retained on the desorption cycle ([2]; desorption cycle): 0.2%
curcumin-L-lysine,remained amorphous,remained amorphous,remained amorphous,remaining amorphous,–,remains amorphous,21.16%,–,–,–,–,–,–,–,–,6.81%,"solid form after thermodynamic solubility studies (XRPD) [4]: still predominantly amorphous; thermodynamic solubility ([4]; 1% solutol): appeared to increase slightly; thermodynamic solubility ([4]; various pH media): very low; thermodynamic solubility ([4]; various pH media, listed as curcumin-L-lysine co-crystal): very poor solubility; pH of water slurry (Slurrying in water; after 1 hour): 9.53; pH of water slurry (Slurrying in water; after 48 hours): 9.41; state of co-crystal in dissolution medium (XRPD of wafer remainder) ([3]; after 24 hours): dissociated in the dissolution medium"
curcumin-nicotinamide,"no signs of form transformation, disproportionation, degradation","no signs of form transformation, disproportionation, degradation","no signs of form transformation, disproportionation, degradation",a loss in crystallinity was observed as the time points increased,moderately/highly hygroscopic,no degradation or transformation had occurred,about 13%,0.66,0.906,1.119,1.705,2.642,3.510,4.719,14.094,about 5%,hygroscopicity (DVS) ([2]; listed as curcumin-nicotinamide co-crystal): moderately hygroscopic; intrinsic dissolution rate relative to curcumin-2-aminobenzimidazole co-crystal ([3]; 1% solutol solution): approximately two times greater

# Like-named read-outs stand apart in the source and are kept apart here.
